Laboratory results reported in article PMC7573392, “Monitoring Allosteric Interactions with CXCR4 Using NanoBiT Conjugated Nanobodies” (Cell Chemical Biology, 2020).

By UniProt entry, the sequences of proteins in these tests, tags left out. Where a name states a change or a piece, a line headed by the entry shows the natural chain unless it says otherwise. Residues count along the entry.
UniProt P61073: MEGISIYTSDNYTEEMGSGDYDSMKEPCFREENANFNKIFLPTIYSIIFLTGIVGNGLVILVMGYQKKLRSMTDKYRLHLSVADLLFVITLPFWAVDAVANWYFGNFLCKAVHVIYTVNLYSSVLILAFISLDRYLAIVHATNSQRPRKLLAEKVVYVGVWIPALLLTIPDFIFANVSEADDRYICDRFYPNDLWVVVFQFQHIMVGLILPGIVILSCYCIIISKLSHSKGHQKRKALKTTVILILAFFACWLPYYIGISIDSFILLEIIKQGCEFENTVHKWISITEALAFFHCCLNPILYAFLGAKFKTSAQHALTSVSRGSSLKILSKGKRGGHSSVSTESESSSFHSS
UniProt P48061, 22-89: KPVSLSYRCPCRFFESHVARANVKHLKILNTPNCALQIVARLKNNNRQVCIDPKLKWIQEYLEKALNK

What was measured:
[1] = molecular target: LgBiT-tagged human CXCR4 receptor (UniProt P61073); experiment: FRET or BRET; NanoBRET dissociation kinetics; membranes from HEK293 LgBiT-CXCR4 cells complemented with 20 nM purified HiBiT; 10 nM CXCL12-AF647 for 15 min, then 1 μM CXCL12 added; 37°C; single exponential fit
[2] = molecular target: LgBiT-tagged human CXCR4 receptor (UniProt P61073); experiment: FRET or BRET; NanoBRET dissociation kinetics; membranes from HEK293 LgBiT-CXCR4 cells complemented with 20 nM purified HiBiT; 10 nM CXCL12-AF647 for 15 min, then 10 μM AMD3100 added; 37°C; single exponential fit

- koff [1]: 0.00533 s⁻¹
- koff [2]: 0.007 s⁻¹
Substance: CXCL12-AlexaFluor647 (from UniProt P48061-2 22-89) (ligand; AlexaFluor647 (position not stated))
